# Source: article PMC8703450, “New Heterocyclic Combretastatin A-4 Analogs: Synthesis and Biological Activity of Styryl-2(3H)-benzothiazolones” (Pharmaceuticals, 2021)
# Test system: colchicine binding site of β-tubulin
# Experiment: Colchicine-binding site assay (EBI competition) in EA.hy926 cells
# Format: cell-based, human
# Details: EA.hy926, 10 μM compound 2 h, then 100 µM EBI 2 h, Western blot
# Protocol: N,N′-ethylene-bis(iodoacetamide) (abcam, ab144980) was dissolved in DMSO to a final concentration of 50 mM. EA.hy926 cells were seeded at density of 1 × 10^5 cells/mL and incubated overnight. […] Cells were lysed with Laemmli buffer and subjected to Western blot analysis for β-tubulin [66, 67]. The detailed Western blot method is as shown above.
structure (smiles),measurement,value
COc1cc2c(c(OC)c1OC)-c1ccc(OC)c(=O)cc1[C@@H](NC(C)=O)CC2 [colchicine],tubulin EBI-adduct formation,inhibited
